Reference: patent US20060079453A1, “Hla binding peptides and their uses” (priority 2002, published 2006)
Read-outs that look alike come from different tables or passages of the source.

Sequences of proteins named here, by UniProt entry; tags and fusion partners are left off. Residues count along the entry.
UniProt P79483, 30-266: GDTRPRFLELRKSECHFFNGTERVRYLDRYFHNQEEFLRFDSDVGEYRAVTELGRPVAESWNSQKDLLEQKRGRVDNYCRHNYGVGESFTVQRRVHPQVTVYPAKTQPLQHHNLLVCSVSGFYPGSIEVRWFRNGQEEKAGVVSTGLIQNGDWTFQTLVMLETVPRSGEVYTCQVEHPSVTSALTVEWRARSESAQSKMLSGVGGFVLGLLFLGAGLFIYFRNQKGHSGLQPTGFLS
UniProt Q30154, 30-266: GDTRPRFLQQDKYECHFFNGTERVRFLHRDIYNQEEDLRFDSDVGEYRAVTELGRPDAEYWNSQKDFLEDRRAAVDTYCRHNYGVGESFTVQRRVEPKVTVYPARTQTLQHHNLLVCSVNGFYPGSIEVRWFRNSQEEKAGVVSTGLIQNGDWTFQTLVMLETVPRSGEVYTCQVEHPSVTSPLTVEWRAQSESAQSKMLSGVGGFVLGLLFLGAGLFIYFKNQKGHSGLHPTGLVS

What was measured:
Assay in all cases: biochemical
Format in all cases: binding
HLA-DR DRB1*1501 (DR15) = HLA-DR DRB1*1501 (DR15) (Homo sapiens, UniProt P01903+P01911)
HLA-DR DRB1*0701 (DR7) = HLA-DR DRB1*0701 (DR7) (Homo sapiens, UniProt P01903+P01911, A100R/A102G/A103Q/D57E/D86V/E43K/F76Y/K127E/L162R/M171V/P40G/Q125H/Q99D/R33Q/R42Y/R54Q/S133A/S66F/T210M/V115G/Y107V/Y59L/Y89S); details: DRB1 *0701
HLA-DR DRB1*1302 (DR13) = HLA-DR DRB1*1302 (DR13) (Homo sapiens, UniProt P01903+P01911, A100E/A169T/K41T/L162R/M171V/P40S/Q125H/Q178H/Q39Y/Q99D/R42S/S66N/T262R/V115G/W38E/Y61H); details: DRBI *1302
HLA-DR DRB1*1101 (DR11) = HLA-DR DRB1*1101 (DR11) (Homo sapiens, UniProt P01903+P01911, A100R/A169T/A87E/I96F/K41T/L162R/M171V/P40S/Q125H/Q178H/Q39Y/Q99D/R42S/S66Y/T262R/V115G/W38E); details: DRB1 *1101
HLA-DR DRB3*0101 (DR52) = HLA-DR DRB3*0101 (DR52) (Homo sapiens, UniProt P01903+P79483)
HLA-DR DRB1*0101 (DR1) = HLA-DR DRB1*0101 (DR1) (Homo sapiens, UniProt P01903+P01911, A100R/D57E/F55L/F60I/F76Y/I96L/L162R/M171V/P40L/Q125E/R42F/V115G/Y59C); details: DRB1 *0101
HLA-DR DRB4*0101 (DR53) = HLA-DR DRB4*0101 (DR53) (Homo sapiens, UniProt P01903+P13762, G164S); details: DRB4 *0101
HLA-DR DRB1*0802 (DR8) = HLA-DR DRB1*0802 (DR8) (Homo sapiens, UniProt P01903+P01911, A100R/A103L/A169T/F76Y/H45Y/I96F/K41T/L162R/M171V/P40S/Q125H/Q178H/Q39Y/Q99D/R218S/R42G/S66Y/V115G/W38E)
HLA-DR DRB5*0101 (DR51) = HLA-DR DRB5*0101 (DR51) (Homo sapiens, UniProt P01903+Q30154); details: DRB5 *0101
HLA-DR DRB1*0401 (DR4) = HLA-DR DRB1*0401 (DR4) (Homo sapiens, UniProt P01903+P01911, A100K/A169T/F76Y/I96L/K127E/L162R/M171V/N62H/P40V/Q125Y/R42H/S133A/S149N/S66Y/V115G/V209L/W38E); details: DRB1 *0401
HLA-DR DRB1*0901 (DR9) = HLA-DR DRB1*0901 (DR9) (Homo sapiens, UniProt P01903+P01911, A100R/A103E/D57H/D86V/F55Y/F60I/F76Y/I96F/K127E/L162R/M171V/P40D/Q125H/Q99R/R33Q/R42F/S133A/S66N/T210M/V115G/W38K/Y107V/Y59G/Y89S); details: DRB1 *0901
HLA-DR DRB1*0301 (DR3) = HLA-DR DRB1*0301 (DR3) (Homo sapiens, UniProt P01903+P01911, A100K/A102G/A103R/A169T/F55Y/I96L/K41T/L162R/M171V/P40S/Q125H/Q178H/Q39Y/R42S/S66N/T106N/T262R/W38E/Y61H)

## CC(C)C[C@H](NC(=O)[C@H](C)NC(=O)[C@H](CCC(=O)O)NC(=O)CN)C(=O)N[C@@H](CO)C(=O)N[C@H](C(=O)N[C@@H](CC(C)C)C(=O)N[C@H](C(=O)N[C@@H](CC(C)C)C(=O)N[C@@H](CC(N)=O)C(=O)N[C@@H](CCCNC(=N)N)C(=O)N[C@@H](CC(C)C)C(=O)N[C@@H](CCCCN)C(=O)N[C@H](C(=O)NCC(=O)O)C(C)C)C(C)C)[C@@H](C)O
HLA-DR DRB1*1501 (DR15); DRBI *1501
  IC50: 0.269 µM

## CC(C)C[C@H](NC(=O)CN)C(=O)N[C@@H](CCCNC(=N)N)C(=O)N[C@@H](CO)C(=O)N[C@@H](CC(C)C)C(=O)N[C@H](C(=O)N[C@H](C(=O)N[C@@H](CC(C)C)C(=O)N[C@@H](CC(C)C)C(=O)N[C@@H](CCCNC(=N)N)C(=O)N[C@@H](C)C(=O)N[C@@H](CC(C)C)C(=O)NCC(=O)N[C@@H](C)C(=O)N[C@@H](CCC(N)=O)C(=O)O)[C@@H](C)O)[C@@H](C)O
HLA-DR DRB1*0701 (DR7)
  IC50: 0.509 µM
HLA-DR DRB1*1501 (DR15); DRBI *1501
  IC50: 0.0062 µM

## CC(C)C[C@H](NC(=O)[C@@H]1CCCN1C(=O)[C@H](Cc1c[nH]cn1)NC(=O)[C@@H]1CCCN1C(=O)[C@H](Cc1ccccc1)NC(=O)[C@H](CO)NC(=O)[C@H](Cc1c[nH]cn1)NC(=O)[C@H](CO)NC(=O)[C@@H](NC(=O)[C@@H]1CCCN1C(=O)[C@@H](NC(=O)[C@H](CCCNC(=N)N)NC(=O)[C@H](CCC(N)=O)NC(=O)CN)C(C)C)C(C)C)C(=O)N[C@@H](Cc1ccc(O)cc1)C(=O)O
HLA-DR DRB1*1501 (DR15); DRBI *1501
  IC50: 3.96 µM

## CC[C@H](C)[C@H](NC(=O)[C@H](CS)NC(=O)[C@H](Cc1c[nH]cn1)NC(=O)[C@H](C)NC(=O)[C@H](C)NC(=O)[C@@H](NC(=O)[C@H](CC(C)C)NC(=O)[C@@H](NC(=O)[C@H](Cc1c[nH]c2ccccc12)NC(=O)[C@H](CCC(N)=O)NC(=O)[C@@H]1CCCN1C(=O)[C@@H](N)Cc1c[nH]cn1)C(C)C)[C@@H](C)O)C(=O)N[C@@H](CCCNC(=N)N)C(=O)N[C@@H](CC(N)=O)C(=O)N[C@@H](CCCCN)C(=O)O
HLA-DR DRB1*1302 (DR13)
  IC50: 1.17 µM
HLA-DR DRB1*1101 (DR11)
  IC50: 0.785 µM
HLA-DR DRB3*0101 (DR52)
  IC50: 1.32 µM

## CC[C@H](C)[C@H](N)C(=O)N[C@@H](Cc1ccc(O)cc1)C(=O)N[C@@H](CO)C(=O)N[C@H](C(=O)N[C@@H](CO)C(=O)N[C@@H](CCSC)C(=O)N[C@@H](CCCCN)C(=O)N[C@@H](Cc1c[nH]cn1)C(=O)N1CCC[C@H]1C(=O)N[C@@H](CCC(N)=O)C(=O)N[C@@H](CCC(=O)O)C(=O)N[C@@H](CCSC)C(=O)N[C@@H](CCCCN)C(=O)N[C@H](C(=O)N[C@@H](Cc1ccc(O)cc1)C(=O)O)[C@@H](C)O)[C@@H](C)CC
HLA-DR DRB1*1501 (DR15); DRBI *1501
  IC50: 5.03 µM

## CSCC[C@H](NC(=O)[C@H](CCC(N)=O)NC(=O)[C@H](CC(C)C)NC(=O)[C@H](Cc1ccccc1)NC(=O)[C@H](CC(C)C)NC(=O)[C@@H](NC(=O)[C@H](Cc1c[nH]cn1)NC(=O)[C@H](CC(N)=O)NC(=O)[C@@H](N)CCCCN)C(C)C)C(=O)N[C@@H](CCSC)C(=O)N[C@@H](CC(N)=O)C(=O)N[C@H](C(=O)N[C@@H](CC(N)=O)C(=O)N[C@@H](CC(C)C)C(=O)N[C@@H](CCC(N)=O)C(=O)O)C(C)C
HLA-DR DRB1*0701 (DR7)
  IC50: 0.757 µM
HLA-DR DRB1*1302 (DR13)
  IC50: 0.036 µM
HLA-DR DRB1*0101 (DR1)
  IC50: 0.012 µM
HLA-DR DRB4*0101 (DR53)
  IC50: 0.022 µM
HLA-DR DRB1*0802 (DR8)
  IC50: > 120 µM
HLA-DR DRB5*0101 (DR51)
  IC50: > 7.21 µM
HLA-DR DRB1*0401 (DR4)
  IC50: 0.032 µM

## CC(C)C[C@H](NC(=O)[C@H](C)NC(=O)CNC(=O)[C@H](C)NC(=O)[C@H](CS)NC(=O)[C@H](CC(C)C)NC(=O)[C@H](Cc1c[nH]c2ccccc12)NC(=O)[C@H](CCCNC(=N)N)NC(=O)[C@@H]1CCCN1)C(=O)N[C@H](C(=O)N[C@@H](CC(C)C)C(=O)N[C@@H](C)C(=O)NCC(=O)NCC(=O)N[C@@H](Cc1ccccc1)C(=O)O)C(C)C
HLA-DR DRB1*1501 (DR15); DRBI *1501
  IC50: 15.2 µM

## CC[C@H](C)[C@H](NC(=O)CNC(=O)[C@H](CC(C)C)NC(=O)CNC(=O)[C@H](CCCCN)NC(=O)[C@H](CCCCN)NC(=O)[C@H](CC(C)C)NC(=O)[C@H](Cc1ccccc1)NC(=O)[C@H](CS)NC(=O)[C@H](CC(C)C)NC(=O)[C@@H](N)CCC(N)=O)C(=O)N[C@@H](CO)C(=O)N[C@@H](Cc1ccc(O)cc1)C(=O)NCC(=O)N[C@@H](CCCNC(=N)N)C(=O)O
HLA-DR DRB1*1501 (DR15)
  IC50: 4.21 µM

## C[C@H](NC(=O)[C@H](CC(=O)O)NC(=O)[C@H](CC(=O)O)NC(=O)[C@H](CC(N)=O)NC(=O)[C@H](Cc1c[nH]cn1)NC(=O)[C@H](CO)NC(=O)[C@H](CC(N)=O)NC(=O)[C@@H](NC(=O)[C@H](CC(=O)O)NC(=O)[C@H](Cc1ccccc1)NC(=O)[C@H](CCCCN)NC(=O)[C@H](CO)NC(=O)[C@H](Cc1ccc(O)cc1)NC(=O)[C@@H](NC(=O)[C@@H](N)CCC(N)=O)[C@@H](C)O)[C@@H](C)O)C(=O)O
HLA-DR DRB1*0701 (DR7)
  IC50: 54.6 µM
HLA-DR DRB1*1302 (DR13)
  IC50: > 17.9 µM
HLA-DR DRB1*0901 (DR9)
  IC50: 31.3 µM
HLA-DR DRB4*0101 (DR53)
  IC50: > 138 µM
HLA-DR DRB1*0301 (DR3)
  IC50: > 55.9 µM
HLA-DR DRB1*0802 (DR8)
  IC50: 7.73 µM
HLA-DR DRB1*1101 (DR11)
  IC50: > 15.4 µM
